Data: patent US20090215080A1

Amino acid sequences for entries named in this document (tags omitted). Residues count along the entry.
UniProt P03952, 20-638 limits assumed: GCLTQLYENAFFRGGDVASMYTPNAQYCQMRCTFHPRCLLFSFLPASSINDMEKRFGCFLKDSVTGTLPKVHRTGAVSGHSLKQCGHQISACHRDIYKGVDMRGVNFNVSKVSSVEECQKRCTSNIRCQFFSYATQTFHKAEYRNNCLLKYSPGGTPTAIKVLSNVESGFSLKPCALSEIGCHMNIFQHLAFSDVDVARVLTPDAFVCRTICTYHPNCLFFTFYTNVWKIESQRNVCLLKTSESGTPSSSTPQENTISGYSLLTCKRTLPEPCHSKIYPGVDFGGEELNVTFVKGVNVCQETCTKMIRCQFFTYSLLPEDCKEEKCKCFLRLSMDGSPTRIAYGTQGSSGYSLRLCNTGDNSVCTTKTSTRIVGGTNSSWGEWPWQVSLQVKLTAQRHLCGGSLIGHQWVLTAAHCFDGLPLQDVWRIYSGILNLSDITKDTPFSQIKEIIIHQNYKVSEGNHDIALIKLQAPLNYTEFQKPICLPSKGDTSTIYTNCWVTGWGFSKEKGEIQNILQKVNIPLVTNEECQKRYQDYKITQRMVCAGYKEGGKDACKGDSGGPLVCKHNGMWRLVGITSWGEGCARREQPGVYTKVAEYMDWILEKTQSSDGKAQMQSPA

molecular target: thrombin (Homo sapiens, UniProt P00734); test: Cleavage of R-Arg-pNA chimeric substrates by thrombin (A405 kinetic read); settings: relative to baseline substrate Acetyl-Arg-pNA (Compound 1)

Going from `N#Cc1ccccc1C(=O)N[C@@H](CCCNC(=N)N)C(=O)Nc1ccc([N+](=O)[O-])cc1` to `N=C(N)NCCC[C@H](NC(=O)c1ccccc1Cl)C(=O)Nc1ccc([N+](=O)[O-])cc1`, the “Relative Catalytic Efficiency (RCE)” value rises from 0.9 to 5.5.

Compared with `CC(C(=O)N[C@@H](CCCNC(=N)N)C(=O)Nc1ccc([N+](=O)[O-])cc1)c1ccccc1` (stereo partly drawn), `CC(=O)Nc1ccccc1C(=O)N[C@@H](CCCNC(=N)N)C(=O)Nc1ccc([N+](=O)[O-])cc1` is lower in “Relative Catalytic Efficiency (RCE)” value: 2.2 for the first, 1.0 for the second.

`N=C(N)NCCC[C@H](NC(=O)c1ccccc1C(F)(F)F)C(=O)Nc1ccc([N+](=O)[O-])cc1` and `CC(=O)N[C@@H](CCCNC(=N)N)C(=O)Nc1ccc([N+](=O)[O-])cc1` are the same in “Relative Catalytic Efficiency (RCE)” value: 1.0 for the first, 1.0 for the second.

With `Cc1ccc(CC(=O)N[C@@H](CCCNC(=N)N)C(=O)Nc2ccc([N+](=O)[O-])cc2)cc1` the “Relative Catalytic Efficiency (RCE)” value was 4.0.

same assay, conditions: versus Acetyl-Arg-pNA baseline

In the case of `N=C(N)NCCC[C@H](NC(=O)c1ccccc1Cl)C(=O)Nc1ccc([N+](=O)[O-])cc1`, the “cleavage over baseline (in words)” value was “enhanced cleavage over baseline”.

molecular target: plasma kallikrein (Homo sapiens, UniProt P03952); test: Cleavage of R-Arg-pNA chimeric substrates by plasma kallikrein (A405 kinetic read); settings: relative to baseline substrate Acetyl-Arg-pNA (Compound 1)

First: Cc1ccc(C(=O)N[C@@H](CCCNC(=N)N)C(=O)Nc2ccc([N+](=O)[O-])cc2)cn1
Second: N=C(N)NCCC[C@H](NC(=O)c1cnc2ccccc2c1)C(=O)Nc1ccc([N+](=O)[O-])cc1
The “Relative Catalytic Efficiency (RCE)” value of the first is lower: 3.9 for the first, 45.9 for the second.

Going from `N=C(N)NCCC[C@H](NC(=O)c1cccc(Oc2ccccc2)c1)C(=O)Nc1ccc([N+](=O)[O-])cc1` to `N=C(N)NCCC[C@H](NC(=O)c1cncc(-c2ccccc2)c1)C(=O)Nc1ccc([N+](=O)[O-])cc1`, the “Relative Catalytic Efficiency (RCE)” value rises from 16.70 to 29.4.

Going from `N=C(N)NCCC[C@H](NC(=O)c1cncc(-c2cccs2)c1)C(=O)Nc1ccc([N+](=O)[O-])cc1` to `N=C(N)NCCC[C@H](NC(=O)c1cccc(-n2cccn2)c1)C(=O)Nc1ccc([N+](=O)[O-])cc1`, the “Relative Catalytic Efficiency (RCE)” value rises from 24.8 to 115.4.

same assay, conditions: versus Acetyl-Arg-pNA baseline

`N=C(N)NCCC[C@H](NC(=O)c1cccc(-n2cccn2)c1)C(=O)Nc1ccc([N+](=O)[O-])cc1` was tested, and the “enhancement of the baseline cleavage rate” value was over 100 fold.
